## Antibody variant affinities, Ab-14 light chain, assay B

Reference: Li et al. 2023, doi:10.1038/s41467-023-39022-2. File: FLAb, binding data.

Binding partner: SARS-CoV-2 spike HR2 peptide, sequence PDVDLGDISGINAS.

The variants keep the heavy chain, the linker and the frameworks of Ab-14 (scFv order VH, a (GGGGS)3 linker, VL).
VH: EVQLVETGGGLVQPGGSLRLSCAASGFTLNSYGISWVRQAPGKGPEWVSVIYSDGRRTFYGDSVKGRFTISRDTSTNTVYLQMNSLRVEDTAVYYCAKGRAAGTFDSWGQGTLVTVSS
VL: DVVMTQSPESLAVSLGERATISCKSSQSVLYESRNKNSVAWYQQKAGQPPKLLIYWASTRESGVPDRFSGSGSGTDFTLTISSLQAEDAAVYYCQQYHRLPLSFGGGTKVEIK

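The variants were designed computationally from a first round of random CDR variants and then made and measured. Several design methods are mixed in this list. Affinity was read by AlphaSeq, a pooled yeast mating assay with surface-displayed partners. Mating (16 h, 30 °C) was followed by selection of diploids and sequencing of their barcodes. Read counts were normalised to the haploid input and turned into Kd by a linear fit to BCL2-family pairs of known affinity, for each replicate. The assay was run in six technical replicates.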

Each variant is given by its three light chain CDRs, as the data file delimits them; those of the parent are KSSQSVLYESRNKNSVA, WASTRES, QQYHRLPLS. Kd is apparent (estimated from mating counts) and averaged on the log scale over replicates with a signal. Smaller is tighter. "nd" marks a missing value. The strain was present, yet no cells mated with the target were sequenced in any replicate, which points to weak or no binding. Values of this round are not directly comparable with the first-round values of the same sequences.

CDR-L1 | CDR-L2 | CDR-L3 | apparent Kd | replicates with signal
MLNGPVEIEQHKWNSVA | SAEILAM | QQYFRLPFS | 24 nM | 6/6
KSSISYLYESRNKNSVA | AASTREL | QQYHRLPLS | 1.2 nM | 6/6
KIELDLTRYNAGYAAIA | HETMKAQ | QQYSRLPLV | 4.0 nM | 6/6
KWSQSVLGEQRNKNSVA | DISTRES | QQYHRLPLS | 500 pM | 6/6
KYPQSEGYESRNQNSVA | AASQREE | QQYHRLPLS | 7.4 nM | 6/6
HLQEQSFVGQKDYWSVA | NTECKYN | QQYARLPLM | 90 nM | 6/6
HLSWWVLYESRNKNSVA | NASTRES | QQYHRLPLS | 1.5 nM | 6/6
KASQSVLYESRNKNSVA | EASTRES | QQYHRLPLS | 4.3 nM | 6/6
KSSQSVLEESRNKNSVA | NASTRES | QQTHRLPIS | 7.1 nM | 6/6
KLSQSVLYESRNKNNVA | EASTRSS | QQYHRLPLS | 760 pM | 6/6
KVSQSVLYESRNKNSVA | NASKRES | QQYHRLPLS | 530 pM | 6/6
QIMEEQSMRTEGTWNIA | QGEQKVH | QQYFRLPLA | 82 nM | 3/6
KLDQSDLYESRNKNSVA | NASTRES | QQYHRLPLS | 860 pM | 6/6
IISGVMLMESKHKNSVA | NAETREY | QHYDRLPLS | 340 nM | 6/6
KFSQSVMYMSSVYNSVA | QMSTRAE | QQYHRLPLS | 2.6 nM | 6/6
HVSGLYTDESVREYNIA | ETSHVEE | QQYERLPLI | 3.9 nM | 6/6
KCSQSVLYESSEKNSVA | WASTRES | QQYHRLPES | nd | 0/6
ALSFEMESPHNHSNNVA | SASKLCS | QQYFTLPLS | 570 nM | 1/6
KISMATTFESRNHNSVA | ENSTRES | QSYHRLPLS | 100 nM | 1/6
IVSQLMIWGMHVKNSIA | EAEQRIN | QQYDRLPLF | 32 nM | 1/6
HITMGMYVHGRHHSSIA | QAETRMK | QQYDRLPLM | 750 nM | 2/6
KSSQSVLYETRNENSVA | WASTRES | AQYHRLPLS | 83 nM | 2/6
KISQSILFMSGQKNAIA | QMEMREE | QQYHRLPLS | 16 nM | 6/6
KIGHGLTTESYNKNSVA | QTETRVS | QHYHRLPLS | 66 nM | 1/6
NLSIQNQPQNMSANAVA | QTEIRCE | QQYAQLPLA | 55 nM | 6/6
KSKQSVLYESRNKNSVA | NASTRES | QQYHRLPLS | 5.8 nM | 6/6

Second part, the sequence after the result:

apparent Kd | replicates with signal | CDR-L1 | CDR-L2 | CDR-L3
340 pM | 6/6 | KLSQSVLYESRNKNSVA | NASTRMA | QQYHRLPLS
1.1 nM | 6/6 | KLSQSHLYESRNKNSVA | EASQRES | QQYHRLPLS
3.8 nM | 6/6 | KISQMVRVGSTVSNSIA | EEVTRMK | QQYHRLPLA
620 pM | 6/6 | KVSQSHLYEERNKNNVA | NASDRES | QQYHRLPLS
67 nM | 6/6 | KSSQSVAYESRNKNSVA | SAKTRES | QQYHRLPLS
23 nM | 6/6 | MVSQLMVWGMHARNSIA | EAQMRLN | QQYDRLPLF
580 pM | 6/6 | KLSQSDLYESRNKNSVA | EASTREQ | QQYHRLPLS
nd | 0/6 | KSSQSVLYETRNKNSVA | GASTRES | PQYHGLPLW
4.2 nM | 6/6 | KVSQSVLYESTNKNSVA | NASTAES | QQYHRLPLS
530 pM | 6/6 | KSQQSWPYESRNKNSVA | NASQRES | QQYHRLPLS
1.2 nM | 6/6 | SLQQSWLYQSRNKNSVA | NASTREW | QQYHRLPLS
540 pM | 6/6 | KITALMRFEQKNSNNIA | EVSMRTK | QQYVRLPLA
1.6 nM | 6/6 | TLVQSVMGSSRTKNSVA | NASTRED | QHYHRLPLS
1.6 nM | 6/6 | KLHQSDGYESRNKNSVA | AASTRSH | QQYHRLPLS
360 pM | 6/6 | KLRQSTLYESRNPNSVA | QASTRES | QQYHRLPLS
2.2 nM | 6/6 | NIEGVEFESAMHGNSVA | GVDLREA | QQYFRLPLH
2.1 nM | 6/6 | KLQQSVPYESRNKNSVA | SASTRSS | QQYHRLPLS
nd | 0/6 | NVGQHMDGESRNKNSVA | HQSTRED | QHYHRLPLS
27 nM | 4/6 | RIEILGEEVTQHYSNVA | EQHVTDM | QQYFRLPLS
6.2 nM | 6/6 | TLYGLSMSMSRNKNNVA | EMTTREK | QQYDRLPLV
15 nM | 6/6 | MLQIEPNGYMGMRSNVA | DGVLVRM | QQYARLPLM
20 nM | 6/6 | TISGVMMQLSHSKNNVA | EVSMRLE | QQYVRLPLA
6.1 nM | 6/6 | KLRQSIEYESRNKNSVA | NASTRES | QIYHRLPLS
nd | 0/6 | KMKQSMEGNPKNWNSVA | EVESAKE | QQYARLPLM
3.4 nM | 6/6 | KSLQSWLYESRNKNSVA | HASTREQ | QQYHRLPLS
99 nM | 6/6 | MVTQMAMTGMMSKRSVA | NAETREH | QQYHRLPLI
890 pM | 6/6 | KLSQSWLYEQRNVNSVA | NASKRLL | QQYHRLPLS

Extract of 6 entries:

CDR-L1 | CDR-L2 | CDR-L3 | apparent Kd | replicates with signal
KLQQSVPYESRNKNSVA | SASTRSS | QQYHRLPLS | 2.1 nM | 6/6
MLNGPVEIEQHKWNSVA | SAEILAM | QQYFRLPFS | 24 nM | 6/6
KISMATTFESRNHNSVA | ENSTRES | QSYHRLPLS | 100 nM | 1/6
KSQQSWPYESRNKNSVA | NASQRES | QQYHRLPLS | 530 pM | 6/6
HLSWWVLYESRNKNSVA | NASTRES | QQYHRLPLS | 1.5 nM | 6/6
KSSISYLYESRNKNSVA | AASTREL | QQYHRLPLS | 1.2 nM | 6/6

Nonspecific signal, from three strains lacking the peptide, appeared in 4% of pairings of all light chain designs, centred on 430 nM (5% of these signals below 38 nM); values are not corrected for it. The authors' rule: three or more of the six replicates give a measured affinity, fewer mean a poor binder.